In US20120190579A1, “Functionalisation of Solid Substrates” (priority 2009, published 2012):

Assay: Glutathione-mediated cleavage of protein adduct at physiologically relevant glutathione concentration (LC-MS)
Format: physicochemical
Conditions: glutathione 5 mM, 0° C., 4 h, pH 8.0, LC-MS

**Q.** Which “cleavage of adduct to GrB2-SH2 domain L111C” value does the source give for “GrB2-SH2 Domain L111C/Dibromomaleimide/Glutathione Adduct” here?
**A.** Its value is “GrB2-SH2 domain L111C was the only protein species present; also recorded: quantitative”.

Entries after “also recorded” stand apart in the source; their conditions may differ.
